# In IntAct's records for PubMed 22439934:
# B1: Ribosomal protein S6 kinase beta-1 (Homo sapiens), P23443-2 (parent)
# chain: MAGVFDIDLDQPEDAGSEDELEEGGQLNESMDHGGVGPYELGMEHCEKFEISETSVNRGPEKIRPECFELLRVLGKGGYGKVFQVRKVTGANTGKIFAMKVLKKAMIVRNAKDTAHTKAERNILEEVKHPFIVDLIYAFQTGGKLYLILEYLSGGELFMQLEREGIFMEDTACFYLAEISMALGHLHQKGIIYRDLKPENIMLNHQGHVKLTDFGLCKESIHDGTVTHTFCGTIEYMAPEILMRSGHNRAVDWWSLGALMYDMLTGAPPFTGENRKKTIDKILKCKLNLPPYLTQEARDLLKKLLKRNAASRLGAGPGDAGEVQAHPFFRHINWEELLARKVEPPFKPLLQSEEDVSQFDSKFTRQTPVDSPDDSTLSESANQVFLGFTYVAPSVLESVKEKFSFEPKIRSPRRFIGSPRTPVSPVKFSPGDFWGRGASASTANPQTPVEYPMETSGIEQMDVTMSGEASAPLPIRQPNSGPYKKQAFPMISKRPEHLRMNL
# Variants of: B1
# Settings: with gli1_human GLI1, P08151
row,Variant,effect of a mutation on the interaction
1,T389A,disrupting interaction
2,T389E,increasing interaction
